Patent US8895564B2, “Biguanide derivative compound” (Nihon University, priority 2010, dated 2014)

Protein sequences, listed by entry. Tags and fused reporters are not part of them. Residues count along the entry.
UniProt Q00959, 23-1464: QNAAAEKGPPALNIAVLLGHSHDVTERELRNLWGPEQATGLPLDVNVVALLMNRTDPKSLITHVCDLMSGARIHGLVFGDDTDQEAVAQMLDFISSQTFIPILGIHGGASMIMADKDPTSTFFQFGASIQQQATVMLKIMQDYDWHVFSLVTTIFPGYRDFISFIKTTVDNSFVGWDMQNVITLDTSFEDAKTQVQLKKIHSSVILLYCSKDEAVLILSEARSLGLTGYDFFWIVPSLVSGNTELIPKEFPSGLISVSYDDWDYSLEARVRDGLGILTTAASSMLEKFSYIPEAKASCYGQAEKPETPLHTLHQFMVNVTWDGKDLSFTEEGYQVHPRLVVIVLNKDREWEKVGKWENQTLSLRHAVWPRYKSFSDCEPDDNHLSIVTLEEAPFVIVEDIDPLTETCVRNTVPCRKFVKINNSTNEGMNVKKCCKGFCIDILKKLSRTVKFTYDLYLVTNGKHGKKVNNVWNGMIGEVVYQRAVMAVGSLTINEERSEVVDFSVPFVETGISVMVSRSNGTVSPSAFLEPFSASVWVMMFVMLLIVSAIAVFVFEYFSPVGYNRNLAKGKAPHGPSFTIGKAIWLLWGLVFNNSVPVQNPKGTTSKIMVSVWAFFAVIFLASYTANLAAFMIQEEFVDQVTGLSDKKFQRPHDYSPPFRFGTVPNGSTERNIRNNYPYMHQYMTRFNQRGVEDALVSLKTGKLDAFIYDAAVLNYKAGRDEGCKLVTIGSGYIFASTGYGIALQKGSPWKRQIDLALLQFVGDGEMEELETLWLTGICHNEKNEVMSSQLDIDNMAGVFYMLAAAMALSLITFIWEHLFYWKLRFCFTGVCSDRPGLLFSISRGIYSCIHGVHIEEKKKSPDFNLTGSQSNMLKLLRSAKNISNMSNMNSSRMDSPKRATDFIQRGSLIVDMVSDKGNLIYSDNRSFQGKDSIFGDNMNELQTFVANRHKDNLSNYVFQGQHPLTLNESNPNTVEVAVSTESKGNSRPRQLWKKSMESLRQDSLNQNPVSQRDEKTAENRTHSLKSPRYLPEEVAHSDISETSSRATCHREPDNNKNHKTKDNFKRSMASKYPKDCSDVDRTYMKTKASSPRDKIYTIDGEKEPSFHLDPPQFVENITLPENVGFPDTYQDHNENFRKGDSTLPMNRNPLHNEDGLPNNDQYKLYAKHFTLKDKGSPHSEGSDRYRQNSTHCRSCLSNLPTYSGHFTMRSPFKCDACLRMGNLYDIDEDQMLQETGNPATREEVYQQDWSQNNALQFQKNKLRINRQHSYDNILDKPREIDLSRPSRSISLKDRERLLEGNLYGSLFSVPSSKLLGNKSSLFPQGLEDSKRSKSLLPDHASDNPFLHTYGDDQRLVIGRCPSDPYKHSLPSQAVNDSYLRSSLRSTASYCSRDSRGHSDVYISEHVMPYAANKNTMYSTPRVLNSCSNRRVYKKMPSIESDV

Target: NR1/NR2A (Rattus norvegicus, UniProt P35439+Q00959)
Assay: Inhibition of NMDA receptor NR1/NR2A activity in Xenopus laevis oocytes, two-electrode voltage clamp method

CC12CC3CC(C)(C1)CC(N)(C3)C2 [Memantine, reference compound]
IC50: 880 nM
